Results as given in PMC7096397, “Improving the drug-likeness of inspiring natural products - evaluation of the antiparasitic activity against Trypanosoma cruzi through semi-synthetic and simplified analogues of licarin A” (Scientific Reports, 2020).

Key:
[1] = PAMPA intestinal model (GIT); format: in vitro ADME
Experimental: Intestinal permeability of tested compounds was estimated applying the PAMPA model previously developed and validated. Briefly, stock solutions were prepared in dimethyl sulfoxide (DMSO) at the concentrations of 10 mM and then diluted with Tris buffer to give the final concentration donor solution at 300 µM and 5% DMSO. The assay procedure was initiated by filling each well of the microtiter plate (MultiScreen, catalogue no. MATRNPS50, Millipore Corporation, Bedford, MA, USA) with 300 μL of each donor drug solution. Carefully, and avoiding the pipette tip contact with the filter, the hydrophobic filter (0.45 μm) of each acceptor well of the 96-well microfilter plate (MultiScreen-IP, catalogue no. MAIPNTR10, Millipore Corporation, Bedford, MA, USA) was adsorbed with 6 μL of the artificial lipid solution which was composed of 2% of L-α-phosphatidylcholine from soybean dissolved, by sonication, in n-dodecane. Immediately after this application, 150 μL of Tris buffer containing 5% DMSO was added to the receiving well. The receiving well was mounted on the donor plate, keeping the underside of the membrane in contact with the donor solution. The assembled donor–acceptor plates were incubated under constant stirring (3 g) at 25 °C for approximately 16 h. Subsequently, the quantity of each compound presented at the receptor solution (150 μL) was determined by UV/VIS spectrophotometrically. The experiments were performed in hexaplicates (n = 6) and the apparent permeability coefficient (Papp) calculated in centimeters per second (cm/s), together with the standard deviation (SD).

[2] = PAMPA-BBB model; format: in vitro ADME
Experimental: The methodology herein applied was similar to that described in the previous section, however with the purpose of assessing the permeability of the compounds through the blood brain barrier (BBB). Thus, stock solutions (10 mM) of each test compound were prepared in DMSO and diluted with phosphate buffered saline (PBS) at pH 7.4. The final concentration of donor solutions was 300 μM and DMSO of 5%. Artificial membrane lipid solutions were prepared daily by dissolving, in n-dodecane, the porcine brain lipid extracted as described[40] at the final concentration of 2% (m/v). PAMPA procedure was similar to that described in the previous section although, in PAMPA-BBB, the donor and acceptor solutions were prepared using phosphate buffer saline (PBS) at pH 7.4 and the Papp was obtained through the equation previously reported.

[3] = system: NCTC cells-clone L929; test: Cytotoxicity against mammalian cells (MTT); format: cell-based, Murine; conditions: 48 h
Experimental: Rhesus monkey kidney cells (LLC-MK2-ATCC CCL 7) were used for the maintenance of trypomastigotes of T. cruzi (Y strain) using RPMI-1640 medium supplemented with 2% fetal bovine serum (FBS). The cells and parasites were kept at 37 °C in a humidified atmosphere containing 5% CO2. Peritoneal macrophages, used in the experiments of anti-amastigote assay, were obtained by washing the peritoneal cavity of BALB/c mice, with RPMI-1640 medium supplemented with 10% FBS and kept at 37 °C in a 5% CO2 humidified incubator. Murine conjunctive cells (NCTC clone 929, ATCC) and LLC-MK2 were kept in RPMI-1640 supplemented with 10% FBS at the same conditions described above.
NCTC cells-clone L929 (6 × 10^4 cells/well) were seeded and incubated with tested compounds (200–1.56 µM) for 48 h at 37 °C in a 5% CO2 humidified incubator. Cytotoxic concentration (CC50) was determined by MTT assay. Optical density was determined in FilterMax F5 (Molecular Devices) at 570 nm. Selectivity Index (SI) was determined using the following ratio: CC50 against NCTC cells/IC50 against parasites.
IC50 and CC50 values were calculated using a sigmoid dose-response curves in Graph–Pad Prism 5.0 software (GraphPad Software - San Diego, CA, USA). For the mechanism of action studies one-way ANOVA (Turkey’s Multiple Comparison test) was used for significance (p < 0.05). […]

For isoeugenol [compound 4], which “Papp (PAMPA, bound stated in text)” value ([1]; PAMPA intestinal model) is on record?
The value was < 10 ×10⁻⁶ cm/s.

What about the “Papp GIT” value ([1]; PAMPA intestinal model, 300 µM donor, Tris buffer, 25 °C, 16 h) of the same substance?
The value was 6.17 10^−6 cm/s.

What about the “permeability on GIT model (in words)” value ([1]; PAMPA-GIT) of the same substance?
Its value is “adequate permeability on GIT model”.

What about the “plasma protein binding percentage” value ([1]; estimated from PAMPA-GIT Papp (threshold 1 × 10^−5 cm/s)) of the same substance?
The value was “lower than 90%”.

And the “permeability in BBB model (in words)” value ([2]; PAMPA-BBB)?
Its value is “did not seem to cross the BBB”.

What about the “Papp BBB” value ([2]; PAMPA-BBB model, 300 µM donor, PBS pH 7.4) of the same substance?
The value was 1.60 10^−6 cm/s.

What about the CC50 [3] of the same substance?
The CC50 was > 200 µM.
